Substrate in the data set: O=C[C@H](O)COP(=O)(O)O
As to the kind of experiment: purified protein. The note with it: GAP to DHAP direction, 25 °C, 100 mM TEA, 10 mM EDTA, 0.2 mM NADH, GAP 0.3 to 3 mM.

B1: HsTIM (Homo sapiens) (protein)
chain: APSRKFFVGGNWKMNGRKQSLGELIGTLNAAKVPADTEVVCAPPTAYIDFARQKLDPKIAVAAQNCYKVTNGAFTGEISPGMIKDCGATWVVLGHSERRHVFGESDELIGQKVAHALAEGLGVIACIGEKLDEREAGITEKVVFEQTKVIADNVKDWSKVVLAYEPVWAIGTGKTATPQQAQEVHEKLRGWLKSNVSDAVAQSTRIIYGGSVTGATCKELASQPDVDGFLVGGASLKPEFVDIINAKQ
As for B1, the Km was determined as 220 ± 30 µM, the kcat came out at 3840 s⁻¹ and the kcat/Km came out at 1.7e+07 M⁻¹ s⁻¹.

Values taken from article PMC6987189, “Native aggregation is a common feature among triosephosphate isomerases of different species” (Scientific Reports, 2020).
